Test system: stationary phase B. burgdorferi

Aluminum lactate
Residual viable cells (SYBR/PI): 49%

— patent US20190008848A1, “IDENTIFICATION OF ADDITIONAL ANTI-PERSISTER ACTIVITY AGAINST BORRELIA BURGDORFERI FROM AN FDA DRUG LIBRARY” (THE JOHNS HOPKINS UNIVERSITY, priority 2015, published 2019)
